{"source": "patent US9176117B2", "about": "“Macrophage hazardous material detection” (dated 2015)", "key": {"[1]": {"test_system": "Phospholipase A2 (PLA2) activity in Sentinel Cells", "assay": "Phospholipase A2 activity in Sentinel Cells (PED6 cleavage fluorescence)", "conditions": "PETN at 50 nm in solution; FIG. 3A"}, "[2]": {"test_system": "nitric oxide synthase (NOS) activity in Sentinel Cells", "assay": "Nitric oxide / nitric oxide synthase activity in Sentinel Cells (DAF-FM diacetate fluorescence)", "conditions": "RDX 50 nm in solution"}}, "note": "This is a selection: effects in other tests are not listed, and their absence says nothing."}
{"smiles": "O=[N+]([O-])OCC(CO[N+](=O)[O-])(CO[N+](=O)[O-])CO[N+](=O)[O-]", "values": [{"measurement": "phospholipase A2 activity", "setting": "[1]", "value": "rapid increase"}]}
{"smiles": "O=[N+]([O-])N1CN([N+](=O)[O-])CN([N+](=O)[O-])C1", "values": [{"measurement": "time after exposure to marked increase in cytoplasmic NO levels", "setting": "[2]", "value": "≤ 10", "unit": "min"}, {"measurement": "cytoplasmic NO levels", "setting": "[2]; FIG. 2D", "value": "marked increase"}]}
